Antibody variant affinities, Ab-14 heavy chain, assay 1

Target: peptide PDVDLGDISGINAS, taken from heptad repeat 2 (HR2) of SARS-CoV-2 spike.

Each scFv is VH, a (GGGGS)3 linker, VL, as in the parent Ab-14, and differs from it in the CDRs of the heavy chain only.
VH: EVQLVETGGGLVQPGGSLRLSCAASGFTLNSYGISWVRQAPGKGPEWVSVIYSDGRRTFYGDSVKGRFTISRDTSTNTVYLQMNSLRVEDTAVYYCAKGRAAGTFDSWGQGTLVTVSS
VL: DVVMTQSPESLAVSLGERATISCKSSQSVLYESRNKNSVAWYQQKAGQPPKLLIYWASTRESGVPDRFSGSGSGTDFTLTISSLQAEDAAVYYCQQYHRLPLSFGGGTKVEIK

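Phage display of a naive human antibody library on the peptide gave the parent. Variants in AAYL49 differ from the parent at up to three CDR positions; double and triple changes were sampled at random. In AlphaSeq, yeast of one mating type display the scFv and yeast of the other type display the target. After mating in shaken culture at 30 °C for 16 h, diploids were selected and their barcode pairs sequenced. A regression on co-assayed BCL2-family reference pairs converts the normalised counts of each replicate to an apparent Kd. There are three technical replicates.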

The parent's heavy chain CDRs are GFTLNSYGIS, VIYSDGRRTFYGDSVK, GRAAGTFDS; each variant's own CDRs replace them letter for letter.
Values are log10 of the apparent Kd in nM; lower means stronger binding.
A pair that was not seen in that replicate is written "ND"; this usually means weak binding, but a binder can also be missed.
Three control strains display no target. For library AAYL49, 15% of the pairings with them gave a signal, with a median of 4.06 and one signal in twenty below 2.83, so weak values seen in few replicates may be background. For each scFv, signals with the empty controls are counted beside the result, with their mean in brackets.
For reference, the parent read 0.65 as the reference entry and 4.11 (one replicate of three) as a member of this library.

CDR-H1,CDR-H2,CDR-H3,"log10 Kd, replicates",control signals
GFTLESYLIS,VIYSDGRRTFYGDSVK,GRAAGTFDS,ND ND ND,0 of 9
GFTLNSYGIS,LIYSDGRRTFYPDSVK,GRAAGTFGS,5.62 4.01 4.18,8 of 9 (4.61)
GFTLWSYGIS,VIYSDMRRTFYGDSVK,GRAAGTFKS,4.29 4.06 ND,8 of 9 (3.98)
GFDLNSYGIS,VIYSDRRRTFYGDAVK,GRAAGTFDS,1.95 ND ND,0 of 9
GFTLNSYSIS,VIYSCGRRTFYGDSVK,QRAAGTFDS,ND ND ND,0 of 9
GFWLNSYGIS,VIYSDGRHTFTGDSVK,GRAAGTFDS,ND ND ND,0 of 9
GVTLNSYGIS,VIYSDGRRTFRGDSVK,GRAAGTFLS,ND ND ND,1 of 9 (4.76)
GFTLNSYGIS,VIYSDGYRTFYGDSVK,GDAAGTIDS,ND ND ND,0 of 9
GFTLNSYGIS,EQYSDGRRTFYGDSVK,GRAAGTFDN,ND ND ND,0 of 9
GFTLNSYGIS,VIYSDGWRSFYGDSEK,GRAAGTFDS,ND ND ND,1 of 9 (3.45)
GFTLNSYGIS,VIYSDGRRTFYVDSTK,GYAAGTFDS,4.51 ND ND,3 of 9 (4.19)
GQTANSYGIS,VIYSDGRRTFYGDSVK,GRAAKTFDS,6.57 3.99 3.79,5 of 9 (4.36)
GFVLNSYGNS,VIYSDGRRTFYGDSNK,GRAAGTFDS,4.76 ND ND,3 of 9 (4.12)
GFTLNSYGIS,VIYTGGRRHFYGDSVK,GRAAGTFDS,ND ND ND,1 of 9 (3.97)
GFTLNSYGIS,VIYSDGRRTFYGTSVK,GRAAGWFNS,ND ND ND,1 of 9 (3.97)
GFTCNSYGIS,GYYSDGRRTFYGDSVK,GRAAGTFDS,ND ND ND,1 of 9 (3.86)
KFTLNSYGIS,VIYSDGRRTFYGDSVF,GRAAGTFDS,2.58 1.97 1.99,1 of 9 (4.95)
GFTLNSYGIS,VIYSDGRITFYGDSVV,GRAAGTQDS,ND 3.12 ND,1 of 9 (2.73)
GFTLNSYGIS,VIISDGRRTFTGDSVK,GRAAGTFDC,ND 4.99 ND,1 of 9 (5.76)
GFLLNSYGIS,VIYEDGRRTFYGDSVK,GRAAGTFDS,ND ND ND,3 of 9 (4.24)
GFTLNSYGIS,VIYSDGRRTFNGDSVK,MRAAGTFDS,ND 3.80 ND,2 of 9 (4.26)
GDTLNSYGIS,VIISDGRLTFYGDSVK,GRAAGTFDS,ND ND ND,0 of 9
GFTLNSCGIS,VFYSDGRRTFYGWSVK,GRAAGTFDS,ND ND ND,1 of 9 (3.89)
GFTNNSYGIS,VIYSDGRRTFYGDSVH,GRATGTFDS,ND ND ND,0 of 9
GFTLNSYGIS,VIISDGPRTFYGDSVK,GRAAGIFDS,4.40 ND ND,0 of 9
GFTLNSYGIS,VIYSDARRTFEGDSVM,GRAAGTFDS,ND ND ND,1 of 9 (3.36)
GFTLNSYGIS,VRYSDGRRQFYGDSVK,GRAAGTFPS,ND ND ND,0 of 9
GFTLNSYGIS,VIISDGRMTFYGMSVK,GRAAGTFDS,ND ND ND,0 of 9
GFTLNSYGIS,VPYSDGRSTFYGDSVK,GRAASTFDS,5.39 3.71 ND,3 of 9 (3.79)
GFTLNSHGIS,VIYSDGDRTFYGDSVK,GRAADTFDS,4.00 3.50 6.02,2 of 9 (5.28)
GFTLNSYGIS,VIYCDGRRTFYGDSVK,GSAAGTFYS,ND ND 5.48,2 of 9 (3.25)
GFTLPSYGIS,MIYSDGRYTFYGDSVK,GRAAGTFDS,ND 5.49 ND,3 of 9 (4.70)
GFTLNSYGIM,VSYSDGRRTFYGDSVK,GRAAGTFES,ND 3.98 ND,1 of 9 (3.39)
GFYLMSYGIS,VIYSDGRRFFYGDSVK,GRAAGTFDS,ND ND ND,0 of 9
GFTLNSAGIS,VIYSDGRRTFYGDSVK,GRAAHGFDS,2.26 2.33 2.96,3 of 9 (4.44)
LFTLNSYGIS,VIYSDGRTTFYGDSVK,GRAAGTHDS,ND 4.63 5.20,5 of 9 (4.63)
GFTLNSYGIS,VIYSDGMRTVYGDSVK,GRAAGTFDS,1.78 1.70 1.74,0 of 9
GFTLNSYGIS,VIYSDGRRTFTGDSVK,GMAARTFDS,ND ND ND,1 of 9 (3.35)
GFTLNSYGIS,VIYSEGRRTFYGDSVK,GRAAGNFDR,ND ND ND,1 of 9 (2.66)
GFTLNSYGIS,VIYMHGRRTFYGDSVK,GRAAGTDDS,6.70 4.17 ND,6 of 9 (4.22)
GFTLNSYGIS,VWYSDGRLTFYGDSVK,GRAAGTFCS,ND ND ND,2 of 9 (3.10)
GNTGNSYGIS,VIYSDGRRTFYGDSVK,GRAKGTFDS,ND ND ND,0 of 9
GFTLQSYGIS,VIYSDGRRTFYGDPVK,GRAAGTFDH,1.17 1.33 1.39,1 of 9 (3.85)
GFTLNSEGIS,VIYSDGRRTFPGDSVK,GRAAGTSDS,ND ND ND,1 of 9 (3.51)
GFTLNSYWIQ,VIYSDGRRTFYGDSKK,GRAAGTFDS,ND ND ND,0 of 9
GFTLNSYGIW,VIYSDGRRTFPGDSVK,GRAAGCFDS,ND 3.47 ND,2 of 9 (4.48)
GFTANSYGIS,VMYSDGSRTFYGDSVK,GRAAGTFDS,ND ND ND,2 of 9 (3.50)

Data: MIT Lincoln Laboratory AlphaSeq set, Engelhart et al. 2022, doi:10.1038/s41597-022-01779-4, as distributed in FLAb.